Consider one compound from US9421237B2, “Tripeptide boronic acid or boronic ester, preparative method and use thereof” (PEKING UNIVERSITY, priority 2009, dated 2016).

Amino acid sequences for entries named in this document (tags omitted). A change or cut given only in a name is not applied to a line headed by its entry.
UniProt P18421: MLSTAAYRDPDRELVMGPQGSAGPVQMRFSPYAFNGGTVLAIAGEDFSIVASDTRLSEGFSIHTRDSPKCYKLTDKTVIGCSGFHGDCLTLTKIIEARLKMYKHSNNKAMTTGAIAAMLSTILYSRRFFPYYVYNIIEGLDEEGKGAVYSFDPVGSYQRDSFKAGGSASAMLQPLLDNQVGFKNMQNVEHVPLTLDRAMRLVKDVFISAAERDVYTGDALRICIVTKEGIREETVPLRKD
UniProt P28075: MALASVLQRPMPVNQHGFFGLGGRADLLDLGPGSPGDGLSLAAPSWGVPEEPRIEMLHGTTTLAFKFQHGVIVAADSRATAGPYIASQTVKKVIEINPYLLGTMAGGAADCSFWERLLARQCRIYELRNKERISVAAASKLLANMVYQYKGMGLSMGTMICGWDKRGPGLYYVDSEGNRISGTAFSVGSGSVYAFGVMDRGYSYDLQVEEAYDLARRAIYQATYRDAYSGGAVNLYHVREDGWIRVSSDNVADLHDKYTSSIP

The target of the experiment is T1, 20S proteasome extracted from rat liver, chymotryptic-like (CT-L) activity (Rattus norvegicus, UniProt P18421+P28075).
T1 construct: 20S proteasome extracted from rat liver; from tissue; host or cells: rat liver
As to the kind of experiment: Proteasome inhibition, chymotryptic-like (CT-L) activity, fluorescent peptide Suc-leu-leu-Val-Tyr-AMC. Format: biochemical. To be noted: rat liver 20S proteasome, 37° C., 1 h. The protocol: The activities of the proteasome were assayed using fluorescent peptides: Suc-leu-leu-Val-Tyr-AMC (Suc represents succinyl, and AMC represents 7-amino-4-methylcoumarin, purchased from SIGMA) for determining chymotryptic-like (CT-L) activity; Z-Ala-Arg-Arg-AMC (Z represents benzyloxycarbonyl, purchased from Calbiochem) for determining trypsin-like (TL) activity; and Z-leu-leu-Glu-βNA (βNA represents β-naphtylamide, purchased from SIGMA) for determining peptidyl-glutamyl-peptide-hydrolyzing (PGPH) enzyme activity.
Method for the aforesaid activity assays is as follows: 1 μg of 20S proteasome extracted from rat liver was incubated with a 100 μL solution containing various concentrations of compounds, 50 μM fluorescent peptides and 20 mM Tris-HCl at 37° C. for 1 h, respectively. The fluorescence released from AMC and RNA reagents was measured by a spectrofluorimeter Fluostar OPTIMA and BMG Germany at excitation/emission wavelengths of 380/440 nm and 335/410 nm, respectively. 0.1% DMSO was used as a solvent control. Compared with the fluorescence of solvent control, an inhibition rate was calculated. Said assays used anticancer drug bortezomib (leukemia drug), namely PS341 as compound for positive control.

In general, IC50 refers to the midpoint of a concentration-inhibition curve. High values mean weaker potency in that assay, low ones greater potency in that assay. The compound `CC(C)C[C@H](NC(=O)[C@H](Cc1ccccc1)NC(=O)c1cnccn1)B(O)O` [PS341, Bortezomib, reference compound] showed a half-maximal inhibitory concentration (IC50) of 0.161 ± 0.024 nM.
